How the values were obtained:
[1] = system: tyrosine kinase pathway proteins (EGFR, p-EGFR, Akt, p-Akt, Erk1/2, p-Erk1/2) in HepG2 cells; assay: Western blot of tyrosine kinase pathway proteins in HepG2; format: cell-based; settings: HepG2, 48 h, lower and higher concentrations compared to control
[2] = system: angiogenesis pathway proteins (VEGFR, Akt, p-Akt, Erk1/2, p-Erk1/2) in HUVEC cells; assay: Antiangiogenic effect, Western blot of angiogenesis pathway proteins in HUVEC; format: cell-based, Human; settings: 48 h
[3] = higher concentrations compared to controls

CNC(=O)c1cc(Oc2ccc(NC(=O)Nc3ccc(Cl)c(C(F)(F)F)c3)cc2)ccn1 [Sorafenib, 4-(4-(3-(4-Chloro-3-(trifluoromethyl)phenyl)ureido)phenoxy)-N-methylpicolinamide, reference compound]
decreased: Total Erk1/2 expression [1] | p-Akt expression ([2]; compared to control, Ru3S and sorafenib high and low, Ru4S high concentration) | Total VEGFR expression ([2]; higher concentrations compared to control) | Total Erk1/2 expression [2, 3] | p-Erk1/2 expression [2, 3]
